Source: ChEMBL document CHEMBL1152222, “Effect of B-ring substitution pattern on binding mode of propionamide selective androgen receptor modulators” (Bioorg Med Chem Lett, 2008)

Biological target: T1, Androgen receptor (Rattus norvegicus, UniProt P15207)
T1 sequence (P15207 whole entry): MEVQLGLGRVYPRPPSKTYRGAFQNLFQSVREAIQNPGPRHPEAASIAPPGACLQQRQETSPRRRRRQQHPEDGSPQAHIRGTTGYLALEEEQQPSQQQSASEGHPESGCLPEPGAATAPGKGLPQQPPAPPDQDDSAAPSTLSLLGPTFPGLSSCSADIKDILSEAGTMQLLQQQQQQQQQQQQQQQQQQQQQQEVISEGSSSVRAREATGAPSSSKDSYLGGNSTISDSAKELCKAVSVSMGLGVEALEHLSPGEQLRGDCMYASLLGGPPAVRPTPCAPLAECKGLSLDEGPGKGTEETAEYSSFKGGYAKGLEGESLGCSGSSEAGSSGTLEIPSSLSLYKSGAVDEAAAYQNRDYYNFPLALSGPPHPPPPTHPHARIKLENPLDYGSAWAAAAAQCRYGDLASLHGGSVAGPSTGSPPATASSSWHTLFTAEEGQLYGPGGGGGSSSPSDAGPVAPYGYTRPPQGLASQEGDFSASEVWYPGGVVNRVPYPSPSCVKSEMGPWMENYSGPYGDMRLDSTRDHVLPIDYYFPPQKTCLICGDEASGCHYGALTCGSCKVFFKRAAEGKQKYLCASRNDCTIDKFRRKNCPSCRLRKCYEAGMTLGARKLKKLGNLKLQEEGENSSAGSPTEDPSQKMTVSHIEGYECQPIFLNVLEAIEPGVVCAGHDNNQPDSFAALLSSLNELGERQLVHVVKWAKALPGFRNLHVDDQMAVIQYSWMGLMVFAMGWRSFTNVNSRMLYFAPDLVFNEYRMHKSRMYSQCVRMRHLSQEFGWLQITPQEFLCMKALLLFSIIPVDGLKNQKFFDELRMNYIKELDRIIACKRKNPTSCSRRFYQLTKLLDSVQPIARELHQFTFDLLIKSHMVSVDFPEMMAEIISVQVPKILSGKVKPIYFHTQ

In the case of `C[C@@](O)(COc1ccc(Cl)c(F)c1)C(=O)Nc1ccc(C#N)c(C(F)(F)F)c1`, the Ki is reported as 1.7 nM.
